{"sequences": {"note": "Sequences of proteins named here, by UniProt entry; tags and fusion partners are left off.", "UniProt P08172, whole entry, looked up": "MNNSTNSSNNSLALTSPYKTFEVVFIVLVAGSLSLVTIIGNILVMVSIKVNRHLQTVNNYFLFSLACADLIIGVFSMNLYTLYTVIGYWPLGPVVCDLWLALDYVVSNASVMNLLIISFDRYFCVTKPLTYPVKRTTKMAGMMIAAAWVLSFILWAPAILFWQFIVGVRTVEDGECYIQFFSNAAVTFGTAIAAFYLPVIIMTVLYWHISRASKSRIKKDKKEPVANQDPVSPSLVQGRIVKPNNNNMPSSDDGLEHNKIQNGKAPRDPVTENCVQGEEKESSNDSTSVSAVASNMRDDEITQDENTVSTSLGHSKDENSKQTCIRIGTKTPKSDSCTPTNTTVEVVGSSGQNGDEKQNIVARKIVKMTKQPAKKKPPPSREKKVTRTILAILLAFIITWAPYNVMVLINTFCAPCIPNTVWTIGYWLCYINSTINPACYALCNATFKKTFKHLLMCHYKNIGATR", "UniProt P06276, whole entry, looked up": "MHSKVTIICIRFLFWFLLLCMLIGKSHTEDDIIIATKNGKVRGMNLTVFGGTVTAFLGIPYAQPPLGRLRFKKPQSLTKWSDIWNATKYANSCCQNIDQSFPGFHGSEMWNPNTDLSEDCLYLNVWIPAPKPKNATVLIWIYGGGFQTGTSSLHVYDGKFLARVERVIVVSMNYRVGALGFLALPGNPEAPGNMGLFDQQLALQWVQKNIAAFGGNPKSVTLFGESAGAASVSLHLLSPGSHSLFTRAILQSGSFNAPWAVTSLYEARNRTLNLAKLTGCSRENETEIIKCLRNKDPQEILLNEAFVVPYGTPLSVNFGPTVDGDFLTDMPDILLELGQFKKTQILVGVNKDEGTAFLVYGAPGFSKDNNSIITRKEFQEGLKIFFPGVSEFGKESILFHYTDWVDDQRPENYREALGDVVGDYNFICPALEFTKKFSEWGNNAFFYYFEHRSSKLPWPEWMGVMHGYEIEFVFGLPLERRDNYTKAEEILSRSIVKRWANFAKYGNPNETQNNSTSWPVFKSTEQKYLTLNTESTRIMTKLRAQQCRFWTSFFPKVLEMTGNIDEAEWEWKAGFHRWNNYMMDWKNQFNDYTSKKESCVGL"}, "source": "ChEMBL document CHEMBL1124523", "about": "“Binary antidotes for organophosphate poisoning: aprophen analogues that are both antimuscarinics and carbamates” (1989)", "key": {"[1]": {"target": "Muscarinic acetylcholine receptor M2 (Homo sapiens) (UniProt P08172)", "experiment": "Inhibition of carbachol-induced release of alpha-amylase from pancreatic acinar cells from that of rat ileum contained the Muscarinic acetylcholine receptor M2 subtypes", "conditions": "Cavia porcellus"}, "[2]": {"target": "Cholinesterase (Homo sapiens) (UniProt P06276)", "experiment": "Anticholinesterase activity and the bimolecular rate constant was determined from the inhibition of butyrylcholinesterase purified from human serum"}, "[3]": {"target": "Muscarinic acetylcholine receptor M2 (Homo sapiens) (UniProt P08172)", "experiment": "Inhibition of carbachol-induced release of alpha-amylase from pancreatic acinar cells from that of rat ileum contained the Muscarinic acetylcholine receptor M2 subtypes; NA is not active", "conditions": "Cavia porcellus"}, "[4]": {"target": "Muscarinic acetylcholine receptor M2 (Homo sapiens) (UniProt P08172)", "experiment": "Antimuscarinic activity on the acetylcholine-induced inhibition of contraction of guinea pig ileum which has M2 muscarinic receptor subtype; NA is not active", "conditions": "Cavia porcellus"}, "[5]": {"target": "Muscarinic acetylcholine receptor M2 (Homo sapiens) (UniProt P08172)", "experiment": "Inhibition of carbachol-induced release of alpha-amylase from pancreatic acini cells from that of rat ileum contained the Muscarinic acetylcholine receptor M2 subtypes", "conditions": "Cavia porcellus"}}, "note": "Calls of active or inactive are those of the source. The rule behind the calls is not given here."}
{"smiles": "CCN(CC)CCOC(=O)C(C)(c1ccc(O)cc1)c1ccc(OC(=O)N(C)C)cc1", "note": "(stereo not drawn)", "values": [{"measurement": "Kb", "setting": "[1]", "result": 3200, "unit": "nM"}, {"measurement": "k3", "setting": "[2]", "result": 5000, "unit": "M⁻¹ s⁻¹"}]}
{"smiles": "CCN(CC)CCOC(=O)C(C)(c1ccccc1)c1ccc(O)cc1", "note": "(stereo not drawn)", "values": [{"measurement": "Kb", "setting": "[1]", "result": 70, "unit": "nM"}]}
{"smiles": "CCN(CC)CCOC(=O)C(C)(c1ccc(OC(=O)N(C)C)cc1)c1ccc(OC(=O)N(C)C)cc1", "values": [{"measurement": "KB", "setting": "[3]", "result": "inactive"}, {"measurement": "pA2", "setting": "[4]", "result": "inactive"}, {"measurement": "k3", "setting": "[2]", "result": 233, "unit": "M⁻¹ s⁻¹"}]}
{"smiles": "CCN(CC)CCOC(=O)C(C)(c1ccccc1)c1ccc(OC(=O)NC)cc1", "note": "(stereo not drawn)", "values": [{"measurement": "k3", "setting": "[2]", "result": 14200, "unit": "M⁻¹ s⁻¹"}, {"measurement": "Kb", "setting": "[5]", "result": 50, "unit": "nM"}]}
{"smiles": "CCN(CC)CCOC(=O)C(C)(c1ccc(O)cc1)c1ccc(O)cc1", "values": [{"measurement": "Kb", "setting": "[1]", "result": 2000, "unit": "nM"}]}
{"smiles": "CN(C)C(=O)Oc1ccc[n+](C)c1", "values": [{"measurement": "k3", "setting": "[2]", "result": 567, "unit": "M⁻¹ s⁻¹"}]}
{"smiles": "CCN(CC)CCOC(=O)C(C)(c1ccccc1)c1ccccc1", "values": [{"measurement": "Kb", "setting": "[1]", "result": 3.1, "unit": "nM"}]}
{"smiles": "CCN(CC)CCOC(=O)C(C)(c1ccccc1)c1ccc(OC(=O)N(C)C)cc1", "note": "(stereo not drawn)", "values": [{"measurement": "Kb", "setting": "[1]", "result": 83, "unit": "nM"}, {"measurement": "k3", "setting": "[2]", "result": 11000, "unit": "M⁻¹ s⁻¹"}]}
